Five molecules from US12570711B2, “Platforms for co-stimulation, novel car designs and other enhancements for adoptive cellular therapy” (Angeles Therapeutics, Inc., priority 2017, dated 2026) can be followed below.

The subject of one experiment is CD3+ve T cells. Put plainly: Proliferation of T cells after lentiviral expression of NEMO mutants (cell numbers, long term culture). As to conditions: expression in T cells. The experiment is classed as cell-based, human. The source says:
Thus, the disclosure provides composition and methods to enhance the survival, proliferation, cytokine secretion, delay exhaustion and senescence and improve the in vivo expansion, persistence and anti-tumor activity of an immune cell, e.g., T cell, e.g., CAR-T or TCR-T or SIR-T cell, and/or an immune cell expressing a non-naturally occurring immune receptor, via selective or preferential (i.e., without AKT activation) activation of the NF-κB pathway in the immune cell.
Buffy coat cells were obtained from healthy de-identified adult donors from the Blood Bank at Children Hospital of Los Angeles and used to isolate peripheral blood mononuclear cells (PBMC) by Ficoll-Hypaque gradient centrifugation. PBMC were either used as such or used to isolate T cells using CD3 magnetic microbeads (Miltenyi Biotech) and following the manufacturer's instructions. PBMC or isolated T cells were re-suspended in XVIVO medium (Lonza) supplanted with 10 ng/ml CD3 antibody, 10 ng/ml CD28 antibody and 100 IU recombinant human-IL2. Cells were cultured at 37° C., in a 5% CO2 humidified incubator. Cells were activated in the above medium for 1 day prior to infection with lentiviral vectors. In general, primary cells (e.g. T cells) were infected in the morning using spin-infection (1800 rpm for 90 minutes at 37° C. with 300 μl of concentrated virus that had been re-suspended in XVIVO medium in the presence of 8 μg/ml of Polybrene® (Sigma, Catalog no. H9268). The media was changed in the evening and the infection was repeated for two more days for a total of 3 infections. After the 3rd infection, the cells were pelleted and resuspended in fresh XVIVO media containing 10 ng/ml CD3 antibody, 10 ng/ml CD28 antibody and 100 IU recombinant human-IL2 and supplemented with respective antibiotics (if indicated) and place in the cell culture flask for selection, unless indicated otherwise. Cells were cultured in the above medium for 10-15 days in case no drug selection was used and for 20-30 days in case drug-selection was used. In cases, where cells were infected with a lentivirus expressing EGFP, they were expanded without drug-selection or flow-sorted to enrich for EGFP-expressing cells. For infection of cancer cell lines, approximately 500,000 cells were infected with 2 ml of the un-concentrated viral supernatant in a total volume of 3 ml with Polybrene® (Sigma, Catalog no. H9268). Then next morning, the cells were pelleted and resuspended in the media with respective antibiotics and place in the cell culture flask for selection.
The mouse NEMO-K270A (SEQ ID NO: 992) is known to activate NF-κB constitutively. […] Cells were cultured at 37° C., in a 5% CO2 humidified incubator, and after 1 day infected with a lentiviral vector (pLENTI-EGFP-Blasticidin) expressing EGFP and lentiviral vectors expressing mouse NEMO-K270A mutants (pLENTI-mNEMO-K270A-FLAG-Blasticidin and pLENTI-mNEMO-K270A-HA-Blasticidin), or mouse NEMO-wt (pLENTI-mNEMO-FLAG-Blasticidin). The sequences of mNEMO-K270A and mNEMO-wt are provided in SEQ ID NOs: 992 and 991, respectively. Approximately 1 day post-infection, cells were selected with blasticidin and cell numbers calculated periodically.

The next experiment deals with T1, CD19 (Homo sapiens, UniProt P15391).
T1 sequence (P15391 20-556): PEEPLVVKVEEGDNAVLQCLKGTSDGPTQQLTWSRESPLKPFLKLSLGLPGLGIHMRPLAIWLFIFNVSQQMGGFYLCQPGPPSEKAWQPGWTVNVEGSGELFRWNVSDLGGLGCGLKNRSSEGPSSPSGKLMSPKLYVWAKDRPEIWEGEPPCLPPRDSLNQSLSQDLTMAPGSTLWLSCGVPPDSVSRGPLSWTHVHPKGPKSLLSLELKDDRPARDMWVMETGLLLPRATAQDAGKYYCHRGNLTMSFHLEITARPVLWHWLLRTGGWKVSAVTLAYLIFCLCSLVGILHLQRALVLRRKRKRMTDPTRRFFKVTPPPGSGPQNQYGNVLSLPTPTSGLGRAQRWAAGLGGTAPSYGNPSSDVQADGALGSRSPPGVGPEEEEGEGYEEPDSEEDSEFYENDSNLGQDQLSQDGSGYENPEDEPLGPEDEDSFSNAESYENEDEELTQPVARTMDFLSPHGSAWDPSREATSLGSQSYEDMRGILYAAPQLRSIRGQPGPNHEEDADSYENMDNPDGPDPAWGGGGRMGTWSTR
Put plainly: CAR-T cell in vitro and in vivo assay panel (IL2 production, proliferation, exhaustion, in vivo expansion, anti-tumor activity). Set-up: endogenous in cells; host or cells: RAJI cells in vitro; Nalm-6-Luc cells xenografted in NSG mice. As to conditions: for cytokine production, proliferation, in vivo expansion and anti-tumor activity of CAR-T cells: compared to CAR-T cells lacking the accessory module.

[1] abbreviates: accessory module replacing hNEMO-K277A.

For the molecule “K13-opt: vFLIP K13 encoded by human codon optimized nucleic acid sequence”, the “ability of T cells to proliferate long term in culture” value in the experiment with CD3+ve T cells was “extends their ability to proliferate long term in culture without undergoing senescence”. “MYD88-L265P: MYD88 mutant that activates NF-κB constitutively, accessory module”: in the experiment with CD19 (setting [1]), the “cytokine production, proliferation, in vivo expansion and anti-tumor activity of CAR-T cells” value was “increased cytokine production, proliferation, in vivo expansion and anti-tumor activity”.

B1: MTCP-1: accessory module of Table 7 (protein)
chain: MAGEDVGAPPDHLWVHQEGIYRDEYQRTWVAVVEEETSFLRARVQQIQVPLGDAARPSHLLTSQLPLMWQLYPEERYMDNNSRLWQIQHHLMVRGVQELLLKLLPDD
modifications: Synthetic Polynucleotide encoding MTCP-1
For B1, the “proliferative response of CAR-T cells” value with CD19 (setting [1]) is reported as “increased proliferative response”.

B2: SEQ ID NO: 9683: SIR targeting CD20 (protein)
chain: MALPVTALLLPLALLLHAARPQIVLSQSPAILSASPGEKVTMTCRASSSVSYMHWYQQKPGSSPKPWIYATSNLASGVPARFSGSGSGTSYSFTISRVEAEDAATYYCQQWTFNPPTFGGGTRLEIKRTVAALEDLKNVFPPEVAVFEPSEAEISHTQKATLVCLATGFYPDHVELSWWVNGKEVHSGVCTDPQPLKEQPALNDSRYCLSSRLRVSATFWQNPRNHFRCQVQFYGLSENDEWTQDRAKPVTQIVSAEAWGRADCGFTSESYQQGVLSATILYEILLGKATLYAVLVSALVLMAMVKRKDSRGRAKRSGSGATNFSLLKQAGDVEENPGPTSMDWIWRILFLVGAATGAHSFEQAYLQQSGAELVRPGASVKMSCKASGYTFTSYNMHWVKQTPRQGLEWIGGIYPGNGDTSYNQKFKGKATLTVGKSSSTAYMQLSSLTSEDSAVYFCARYDYNYAMDYWGQGTSVTVSSASTRIQNPDPAVYQLRDSKSSDKSVCLFTDFDSQTNVSQSKDSDVYITDKCVLDMRSMDFKSNSAVAWSNKSDFACANAFNNSIIPEDTFFPSPESSCDVKLVEKSFETDTNLNFQNLSVIGFRILLLKVAGFNLLMTLRLWSSRAKRSGSGVKQTLNFDLLKLAGDVESNPGPSRGHMNRHLWKSQLCEMVQPSGGPAADQDVLGEESPLGKPAMLHLPSEQGAPETLQRCLEENQELRDAIRQSNQILRERCEELLHFQASQREEKEFLMCKFQEARKLVERLGLEKLDLKRQKEQALREVEHLKRCQQQMAEDKASVKAQVTSLLGELQESQSRLEAATKECQALEGRARAASEQARQLESEREALQQQHSVQVDQLRMQGQSVEAALRMERQAASEEKRKLAQLQVAYHQLFQEYDNHIKSSRGMQLEDLKQQLQQAEEALVAAQEVIDKLKEEAEQHKIVMETVPVLKAQADIYKADFQAERQAREKLAEKKELLQEQLEQLQREYSKLKASCQESARIEDMRKRHVEVSQAPLPPAPAYLSSPLALPSQRRSPPEEPPDFCCPKCQYQAPDMDTLQIHVMECIE
modifications: Synthetic Polynucleotide encoding a CAR with optional accessory module(s)
notes: SIR targeting CD20
Regarding B2, the “in vitro and in vivo activity with co-expressed hNEMO-K277A module” value in the experiment with CD19 (compared to similar constructs which lack the hNEMO-K277A module) is “improve the in vitro and in vivo performance”.

B3: IKK1-S176E-S180E: constitutive active mutant of IKKa/IKK1 (protein)
chain: MERPPGLRPGAGGPWEMRERLGTGGFGNVCLYQHRELDLKIAIKSCRLELSTKNRERWCHEIQIMKKLNHANVVKACDVPEELNILIHDVPLLAMEYCSGGDLRKLLNKPENCCGLKESQILSLLSDIGSGIRYLHENKIIHRDLKPENIVLQDVGGKIIHKIIDLGYAKDVDQGELCTEFVGTLQYLAPELFENKPYTATVDYWSFGTMVFECIAGYRPFLHHLQPFTWHEKIKKKDPKCIFACEEMSGEVRFSSHLPQPNSLCSLIVEPMENWLQLMLNWDPQQRGGPVDLTLKQPRCFVLMDHILNLKIVHILNMTSAKIISFLLPPDESLHSLQSRIERETGINTGSQELLSETGISLDPRKPASQCVLDGVRGCDSYMVYLFDKSKTVYEGPFASRSLSDCVNYIVQDSKIQLPIIQLRKVWAEAVHYVSGLKEDYSRLFQGQRAAMLSLLRYNANLTKMKNTLISASQQLKAKLEFFHKSIQLDLERYSEQMTYGISSEKMLKAWKEMEEKAIHYAEVGVIGYLEDQIMSLHAEIMGLQKSPYGRRQGDLMESLEQRAIDLYKQLKHRPSDHSYSDSTEMVKIIVHTVQSQDRVLKELFGHLSKLLGCKQKIIDLLPKVEVALSNIKEADNTVMFMQGKRQKEIWHLLKIACTQSSARSLVGSSLEGAVTPQTSAWLPPTSAEHDHSLSCVVTPQDGETSAQMIEENLNCLGHLSTIIHEANEEQGNSMMNLDWSWLTE
B3: the “cytokine production, proliferation, in vivo expansion and anti-tumor activity of CAR-T cells” value in the experiment with CD19 (setting [1]) is “increased cytokine production, proliferation, in vivo expansion and anti-tumor activity”. The “ability of T cells to proliferate long term in culture” value with CD3+ve T cells is reported as “extends their ability to proliferate long term in culture without undergoing senescence”.
